Patent US10072026B2, “Crystalline form of 3-((1R,3s,5S)-3-((7-((5-methyl-1H-pyrazol-3-yl)amino)-1,6-naphthyridin-5-yl)amino)-8-azabicyclo[3.2.1]octan-8-yl)propanenitrile” (priority 2015, dated 2018)
Where two headings read alike, the source gives them in different places.

By UniProt entry, the sequences of proteins in these tests, tags left out. Where a name states a change or a piece, a line headed by the entry shows the natural chain unless it says otherwise.
UniProt P29597: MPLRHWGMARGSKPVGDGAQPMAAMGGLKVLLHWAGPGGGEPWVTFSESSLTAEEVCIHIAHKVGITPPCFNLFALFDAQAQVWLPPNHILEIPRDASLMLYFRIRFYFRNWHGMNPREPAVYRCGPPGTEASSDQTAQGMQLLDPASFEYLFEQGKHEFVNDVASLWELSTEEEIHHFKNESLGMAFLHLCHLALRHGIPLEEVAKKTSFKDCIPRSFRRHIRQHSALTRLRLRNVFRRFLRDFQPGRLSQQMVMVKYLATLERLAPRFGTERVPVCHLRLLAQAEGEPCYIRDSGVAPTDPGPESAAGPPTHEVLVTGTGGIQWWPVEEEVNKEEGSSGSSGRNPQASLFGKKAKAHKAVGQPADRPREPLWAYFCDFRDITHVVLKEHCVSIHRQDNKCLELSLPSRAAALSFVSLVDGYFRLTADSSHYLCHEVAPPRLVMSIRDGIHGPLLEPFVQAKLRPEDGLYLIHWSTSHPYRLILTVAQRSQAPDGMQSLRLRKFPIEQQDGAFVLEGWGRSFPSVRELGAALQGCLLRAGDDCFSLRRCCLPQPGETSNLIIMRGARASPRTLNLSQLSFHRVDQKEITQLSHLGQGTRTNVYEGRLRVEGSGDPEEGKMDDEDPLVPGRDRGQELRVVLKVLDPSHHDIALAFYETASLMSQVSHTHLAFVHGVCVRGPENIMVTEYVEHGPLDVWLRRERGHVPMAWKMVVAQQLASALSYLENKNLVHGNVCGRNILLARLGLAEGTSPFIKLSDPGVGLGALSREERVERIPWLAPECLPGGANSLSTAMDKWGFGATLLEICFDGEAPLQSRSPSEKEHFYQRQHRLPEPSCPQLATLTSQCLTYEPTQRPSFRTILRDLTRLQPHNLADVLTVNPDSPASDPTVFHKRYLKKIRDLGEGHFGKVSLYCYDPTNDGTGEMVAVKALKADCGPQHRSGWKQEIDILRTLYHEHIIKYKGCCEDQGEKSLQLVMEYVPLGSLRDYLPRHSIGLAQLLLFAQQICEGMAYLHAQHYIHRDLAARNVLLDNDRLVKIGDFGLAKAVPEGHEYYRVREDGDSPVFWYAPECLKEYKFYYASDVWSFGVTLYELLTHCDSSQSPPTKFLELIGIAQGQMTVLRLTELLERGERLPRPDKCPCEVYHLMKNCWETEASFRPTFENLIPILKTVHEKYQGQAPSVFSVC
UniProt P23458: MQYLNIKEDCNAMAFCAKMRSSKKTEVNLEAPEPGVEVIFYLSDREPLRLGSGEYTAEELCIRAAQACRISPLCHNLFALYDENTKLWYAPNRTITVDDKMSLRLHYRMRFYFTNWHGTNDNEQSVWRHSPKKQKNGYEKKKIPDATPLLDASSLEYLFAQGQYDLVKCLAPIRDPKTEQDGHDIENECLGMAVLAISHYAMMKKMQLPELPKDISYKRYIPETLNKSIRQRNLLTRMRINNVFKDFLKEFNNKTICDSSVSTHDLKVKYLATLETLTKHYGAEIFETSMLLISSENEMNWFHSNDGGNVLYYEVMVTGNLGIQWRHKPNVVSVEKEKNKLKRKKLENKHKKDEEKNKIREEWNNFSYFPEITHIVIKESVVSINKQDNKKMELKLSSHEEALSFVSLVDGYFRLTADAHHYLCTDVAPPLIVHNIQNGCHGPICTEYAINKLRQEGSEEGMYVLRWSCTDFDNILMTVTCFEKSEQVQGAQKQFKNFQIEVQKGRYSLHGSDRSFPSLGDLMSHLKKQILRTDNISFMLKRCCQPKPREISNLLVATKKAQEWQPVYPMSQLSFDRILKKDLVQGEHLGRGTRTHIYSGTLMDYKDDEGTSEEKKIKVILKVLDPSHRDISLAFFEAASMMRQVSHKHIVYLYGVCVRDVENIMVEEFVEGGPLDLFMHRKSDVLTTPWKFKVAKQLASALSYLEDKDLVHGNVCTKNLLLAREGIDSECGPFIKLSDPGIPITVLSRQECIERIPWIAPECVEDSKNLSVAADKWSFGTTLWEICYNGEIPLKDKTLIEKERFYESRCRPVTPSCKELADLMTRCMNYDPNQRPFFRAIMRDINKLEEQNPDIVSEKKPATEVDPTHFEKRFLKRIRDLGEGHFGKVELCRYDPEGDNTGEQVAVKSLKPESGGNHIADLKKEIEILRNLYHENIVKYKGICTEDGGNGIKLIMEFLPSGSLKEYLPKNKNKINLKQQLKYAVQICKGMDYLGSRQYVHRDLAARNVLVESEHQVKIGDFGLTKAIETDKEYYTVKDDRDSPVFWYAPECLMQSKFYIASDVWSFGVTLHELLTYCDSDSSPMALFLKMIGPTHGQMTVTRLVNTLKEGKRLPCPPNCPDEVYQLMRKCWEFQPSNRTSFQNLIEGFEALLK
UniProt O60674: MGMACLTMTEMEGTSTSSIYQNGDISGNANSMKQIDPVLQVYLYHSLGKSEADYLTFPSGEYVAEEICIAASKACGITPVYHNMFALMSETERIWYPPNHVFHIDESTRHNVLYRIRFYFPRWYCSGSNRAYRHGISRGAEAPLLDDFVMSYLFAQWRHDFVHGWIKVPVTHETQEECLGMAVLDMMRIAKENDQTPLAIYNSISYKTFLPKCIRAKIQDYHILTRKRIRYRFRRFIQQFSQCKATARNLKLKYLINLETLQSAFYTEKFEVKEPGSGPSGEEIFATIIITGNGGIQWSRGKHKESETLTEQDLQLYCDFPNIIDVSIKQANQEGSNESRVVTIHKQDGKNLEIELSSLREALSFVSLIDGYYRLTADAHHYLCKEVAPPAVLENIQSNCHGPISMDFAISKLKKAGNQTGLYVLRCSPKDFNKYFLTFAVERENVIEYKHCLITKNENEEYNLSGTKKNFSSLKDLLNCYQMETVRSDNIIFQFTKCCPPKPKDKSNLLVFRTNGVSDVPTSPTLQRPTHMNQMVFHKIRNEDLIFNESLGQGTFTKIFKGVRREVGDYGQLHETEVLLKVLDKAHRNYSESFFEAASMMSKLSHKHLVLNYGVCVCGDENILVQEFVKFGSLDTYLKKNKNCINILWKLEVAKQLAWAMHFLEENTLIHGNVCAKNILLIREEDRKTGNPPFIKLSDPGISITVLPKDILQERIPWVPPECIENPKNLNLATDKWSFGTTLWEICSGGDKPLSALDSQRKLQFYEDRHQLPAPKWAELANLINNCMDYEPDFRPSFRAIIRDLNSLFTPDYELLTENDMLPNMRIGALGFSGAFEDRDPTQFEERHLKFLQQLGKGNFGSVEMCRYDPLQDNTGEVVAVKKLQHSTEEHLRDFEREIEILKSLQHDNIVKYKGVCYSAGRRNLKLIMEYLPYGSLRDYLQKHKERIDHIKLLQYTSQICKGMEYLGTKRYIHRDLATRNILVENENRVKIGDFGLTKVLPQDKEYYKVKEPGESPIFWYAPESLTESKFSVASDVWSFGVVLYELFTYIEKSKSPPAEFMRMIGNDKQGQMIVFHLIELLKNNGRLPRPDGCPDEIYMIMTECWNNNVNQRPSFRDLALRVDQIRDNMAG

Assays:
Tyk2 = Tyk2 (Homo sapiens (Human), UniProt P29597); test: LanthaScreen JAK biochemical assay (Tyk2)
JAK1 = JAK1 (Homo sapiens (Human), UniProt P23458); test: LanthaScreen JAK biochemical assay (JAK1)
JAK2 = JAK2 (Homo sapiens (Human), UniProt O60674); test: LanthaScreen JAK biochemical assay (JAK2)
JAK3 = JAK3 (Homo sapiens (Human), UniProt P52333); test: LanthaScreen JAK biochemical assay (JAK3)
[1] = read-out: Tyk 2 (pKi) (converted)

Structure (SMILES) | Ki (Tyk2) [nM] | Ki (JAK2) [nM] | other results
Cc1cc(Nc2cc3ncccc3c(N[C@@H]3C[C@H]4CC[C@@H](C3)N4S(=O)(=O)c3cccnc3)n2)n[nH]1 [Example 3, N^7-(5-methyl-1H-pyrazol-3-yl)-N^5-((1R,3s,5S)-8-(pyridin-3-ylsulfonyl)-8-azabicyclo[3.2.1]octan-3-yl)-1,6-naphthyridine-5,7-diamine] | 1 to 100 | – | –
Cc1cc(Nc2cc3ncccc3c(N[C@@H]3C[C@H]4CC[C@@H](C3)N4S(=O)(=O)N3CCC3)n2)n[nH]1 [Example 4-6] | – | – | Ki (Tyk2; [1]): 1 to 100 nM
Cc1cc(Nc2cc3ncccc3c(N[C@@H]3C[C@H]4CC[C@@H](C3)N4S(=O)(=O)C3CNC3)n2)n[nH]1 [Example 4-9] | 1 to 100 | – | –
CCN1CC(S(=O)(=O)N2[C@@H]3CC[C@H]2C[C@H](Nc2nc(Nc4cc(C)[nH]n4)cc4ncccc24)C3)C1 [Example 4-10] | – | – | Ki (Tyk2; [1]): 1 to 100 nM
Cc1cc(Nc2cc3ncccc3c(N[C@@H]3C[C@H]4CC[C@@H](C3)N4S(=O)(=O)c3ccccn3)n2)n[nH]1 [Example 4-14] | – | 1 to 100 | Ki (JAK1): 1 to 100 nM; Ki (Tyk2; [1]): 1 to 100 nM
Cc1cc(Nc2cc3ncccc3c(N[C@@H]3C[C@H]4CC[C@@H](C3)N4C(=O)C(F)F)n2)n[nH]1 [Example 5, 2,2-difluoro-1-((1R,3s,5S)-3-((7-((5-methyl-1H-pyrazol-3-yl)amino)-1,6-naphthyridin-5-yl)amino)-8-azabicyclo[3.2.1]octan-8-yl)ethan-1-one] | – | 1 to 100 | –
Cc1cc(Nc2cc3nc(CO)ccc3c(N[C@@H]3C[C@H]4CC[C@@H](C3)N4S(C)(=O)=O)n2)n[nH]1 [Example 5-12] | – | – | Ki (JAK3): 1 to 100 nM
CCC1(S(=O)(=O)N2[C@@H]3CC[C@H]2C[C@H](Nc2nc(Nc4cc(C)[nH]n4)cc4nc(CN5CCC(F)(F)CC5)ccc24)C3)CC1 [Example 5-32] | – | 0.1 to 1 | Ki (JAK1): 0.1 to 1 nM
Cc1cc(Nc2cc3nc(CN4CCC(F)(F)CC4)ccc3c(N[C@@H]3C[C@H]4CC[C@@H](C3)N4CC(F)(F)F)n2)n[nH]1 [Example 5-33] | – | 0.1 to 1 | –
Cc1cc(Nc2cc3nc(CN4CCN(C)CC4)ccc3c(N[C@@H]3C[C@H]4CC[C@@H](C3)N4S(=O)(=O)c3cncc(F)c3)n2)n[nH]1 [Example 5-40] | 1 to 100 | – | –
COCCS(=O)(=O)N1[C@@H]2CC[C@H]1C[C@H](Nc1nc(Nc3cc(C)[nH]n3)cc3ncccc13)C2 [Example 6, N^5-((1R,3s,5S)-8-((2-methoxyethyl)sulfonyl)-8-azabicyclo[3.2.1]octan-3-yl)-N^7-(5-methyl-1H-pyrazol-3-yl)-1,6-naphthyridine-5,7-diamine] | 1 to 100 | – | –
COc1cnc2cc(Nc3cc(C)[nH]n3)nc(N[C@@H]3C[C@H]4CC[C@@H](C3)N4CC(F)(F)F)c2c1 [Example 6-17] | – | 1 to 100 | –
COC(=O)c1cnc2cc(Nc3cc(C)[nH]n3)nc(N[C@@H]3C[C@H]4CC[C@@H](C3)N4S(C)(=O)=O)c2c1 [Example 6-33] | – | – | Ki (JAK3): 1 to 100 nM
Cc1cc(Nc2cc3ncccc3c(N[C@@H]3C[C@H]4CCC[C@@H](C3)N4S(=O)(=O)c3cccnc3)n2)n[nH]1 [Example 8, N^7-(5-methyl-1H-pyrazol-3-yl)-N^5-((1R,3s,5S)-9-(pyridin-3-ylsulfonyl)-9-azabicyclo[3.3.1]nonan-3-yl)-1,6-naphthyridine-5,7-diamine] | 0.1 to 1 | – | –
Cc1cc(Nc2cc3nc(CN4CCOCC4)ccc3c(N[C@@H]3C[C@H]4CC[C@@H](C3)N4CC(F)(F)F)n2)n[nH]1 [Example 15, N^7-(5-methyl-1H-pyrazol-3-yl)-2-(morpholinomethyl)-N^5-((1R,3s,5S)-8-(2,2,2-trifluoroethyl)-8-azabicyclo[3.2.1]octan-3-yl)-1,6-naphthyridine-5,7-diamine] | 0.1 to 1 | – | Ki (JAK3): 0.1 to 1 nM
COC(=O)c1cnc2cc(Nc3cc(C)[nH]n3)nc(N[C@@H]3C[C@H]4CC[C@@H](C3)N4C3CCCOC3=O)c2c1 (stereo partly drawn) [Example 16, Methyl 7-((5-methyl-1H-pyrazol-3-yl)amino)-5-(((1R,3s,5S)-8-(2-oxotetrahydro-2H-pyran-3-yl)-8-azabicyclo[3.2.1]octan-3-yl)amino)-1,6-naphthyridine-3-carboxylate] | – | 1 to 100 | –
